{
  "sequences": {"note": "By UniProt entry, the sequences of proteins in these tests, tags left out. Where a name states a change or a piece, a line headed by the entry shows the natural chain unless it says otherwise.", "UniProt Q07869": "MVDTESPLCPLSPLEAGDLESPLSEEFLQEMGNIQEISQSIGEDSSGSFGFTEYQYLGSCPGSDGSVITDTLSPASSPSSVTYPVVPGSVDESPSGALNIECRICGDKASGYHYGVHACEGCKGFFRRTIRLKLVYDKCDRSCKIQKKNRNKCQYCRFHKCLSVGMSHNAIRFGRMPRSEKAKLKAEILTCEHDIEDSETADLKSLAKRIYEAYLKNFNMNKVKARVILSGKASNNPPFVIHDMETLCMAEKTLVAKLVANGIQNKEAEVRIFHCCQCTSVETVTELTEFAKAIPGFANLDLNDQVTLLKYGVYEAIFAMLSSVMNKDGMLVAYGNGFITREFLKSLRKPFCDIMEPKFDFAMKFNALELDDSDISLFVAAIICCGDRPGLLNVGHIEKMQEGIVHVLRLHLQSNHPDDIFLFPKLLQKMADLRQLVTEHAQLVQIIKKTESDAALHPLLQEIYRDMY"},
  "source": "PubChem BioAssay AID2284334",
  "about": "(EPA ToxCast)",
  "target": "human Peroxisome Proliferator-activated Receptor alpha (PPARa), PPARA (gene 5465) (UniProt Q07869)",
  "experiment": "ATG_hPPARa_EcoTox2: Attagene TRANS-FACTORIAL EcoTox-2 HepG2 Assay for human Peroxisome Proliferator-activated Receptor alpha (PPARa)",
  "experimental": "ATG_EcoTox2 is a cell-based, multiplexed assay created by modifying the existing Attagene TRANS-FACTORIAL system to include a panel of nuclear receptors from some or all the following species: human (Homo sapiens), african clawed frog (Xenopus laevis), rainbow trout (Oncorhynchus mykiss), japanese medaka (Oryzias latipes), and zebrafish (Danio rerio). The ECOTOX2-FACTORIAL format uses HepG2, a human liver cell line, with measurements taken at 24 hours after chemical dosing in a 24-well plate. ATG_hPPARa_EcoTox2 is one of 29 assay components calculated in the ATG_EcoTox2 assay. It is designed to make measurements of mRNA induction, a form of inducible reporter, as detected with fluorescence intensity signals by Reverse transcription polymerase chain reaction (RT-PCR) and Capillary electrophoresis technology.The assay endpoint ATG_hPPARa_EcoTox2 was analyzed in the positive analysis fitting direction relative to DMSO as the negative control and baseline of activity. Using a type of inducible reporter, measures of mRNA for gain-of-signal activity can be used to understand the reporter gene at the transcription factor-level as they relate to the gene PPARa. Furthermore, this assay endpoint can be referred to as a primary readout, because this assay has produced multiple assay endpoints where this one serves a reporter gene function. […]",
  "note": "Only a part is listed here, and it is no random draw. Results filed as inconclusive are left out. The source made the active and inactive calls. How the source made its calls: active means hit-call score of the fitted dose curve at least 0.9, where 1 is the maximum; inconclusive means response in the unintended direction; inactive means score below 0.9.",
  "data": [
    {"compound": "Cc1nc(-c2ccc(C(F)(F)F)cc2)sc1C(=O)NCc1ccc(OC(C)(C)C(=O)O)cc1", "values": [
      {"measurement": "AC50", "result": "active: 82.3 nM"}
    ]}
  ]
}
